# Assay results taken from PubChem BioAssay AID1777 (Sanford-Burnham Center for Chemical Genomics, 2009).
# The chains behind the UniProt entries cited, without tags or fusion partners. Where a name states a change or a piece, a line headed by the entry shows the natural chain unless it says otherwise.
# UniProt P41145: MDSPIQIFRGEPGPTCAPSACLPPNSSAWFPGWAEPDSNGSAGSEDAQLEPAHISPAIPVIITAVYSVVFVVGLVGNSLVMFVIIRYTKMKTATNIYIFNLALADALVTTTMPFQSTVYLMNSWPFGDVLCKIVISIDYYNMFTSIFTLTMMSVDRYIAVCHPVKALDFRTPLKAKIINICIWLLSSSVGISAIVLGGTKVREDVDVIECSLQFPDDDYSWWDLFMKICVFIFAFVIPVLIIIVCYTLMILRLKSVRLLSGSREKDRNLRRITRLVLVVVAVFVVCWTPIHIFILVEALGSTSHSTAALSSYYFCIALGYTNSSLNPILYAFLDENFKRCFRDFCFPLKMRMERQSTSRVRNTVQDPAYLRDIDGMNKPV
# The list shows a part of the results. Results with a measured potency or affinity are listed apart. The source made the active and inactive calls. No stated cut-off is given here; in the data, active means activation above about 50% (passing the limit was not always enough); inactive means the rest.
# Molecular target: Kappa-type opioid receptor (Homo sapiens) (UniProt P41145)
# Test: KOR agonists, beta-arrestin recruitment, primary screen, cell-based, luminescence, uHTS (AID 1777)
# Settings: at 10 µM, active compounds read high
row,Structure (SMILES),activation
1,Cn1c(=O)c2ncn(CC(=O)NCCOc3ccc(C(C)(C)C)cc3)c2n(C)c1=O,inactive: -1.5%
2,O=S(=O)(c1ccc(Br)cc1)N1CCn2c(nc3ccccc32)C1,inactive: -1.1%
3,Cn1c(=O)c2c(ncn2CC(=O)N/N=C/C=C/c2ccccc2)n(C)c1=O,inactive: -4.4%
4,O=S(=O)(c1ccc(Cl)c(Cl)c1)N1CCc2nc3ccccc3n2CC1,inactive: -1.3%
5,CC1CC(C)CN(Cc2nc3c(c(=O)n(C)c(=O)n3C)n2CCN2CCOCC2)C1 (stereo unspecified),inactive: 6.4%
6,O=S(=O)(Nc1ccc2c(c1)nc1n2CCN(Cc2ccccc2)C1)c1ccccc1,inactive: -5.2%
7,O=C(/C=C/c1ccccc1)OC1CN2CCC1CC2 (stereo unspecified),inactive: 0.7%
8,COc1cccc(NC(=O)Cn2c(SCC(=O)N3CCOCC3)nc3ccccc32)c1,inactive: -4.6%
9,COc1ccc(Cc2nc3ccccc3n2CC(=O)N/N=C/c2ccc(C)cc2O)cc1OC,inactive: -0.8%
10,CCN(c1ccccc1)S(=O)(=O)c1ccc(OC)c(NC(=O)Cn2cnc3c2c(=O)n(C)c(=O)n3C)c1,inactive: -5.9%
11,CCc1cccc(NC(=O)Cn2c3[n+](c4ccc(C(F)(F)F)cc42)CCCCC3)c1,inactive: 4.7%
12,Cn1c(=O)n(Cc2ccccc2F)c(=O)c2c1nc1n2CCN1Cc1ccco1,inactive: 1%
13,COc1cccc(NC(=S)N2CCn3c(nc4ccccc43)C2)c1,inactive: 7.8%
14,CC(C)C[C@H](NC(=O)N1CCn2c1nc1ccccc12)C(=O)NCc1ccc2c(c1)OCO2,inactive: -3.5%
15,N=c1n(CCN2CCCCC2)c2ccccc2n1CC(O)c1cccc(Br)c1 (stereo unspecified),inactive: 4.4%
16,Cc1ccc(OCC(O)Cn2c(=N)n(CCN3CCCCC3)c3ccccc32)cc1 (stereo unspecified),inactive: 0.8%
17,CCN(CC)CCn1c(NCc2ccco2)nc2ccccc21,inactive: -0.8%
18,Cc1nc2ccccc2n1CC(=O)N/N=C\C=C\c1ccccc1,inactive: -0.9%
19,Cn1c(=O)c2ncn(CC(=O)N/N=C/C=C/c3ccccc3)c2n(C)c1=O,inactive: -0.5%
20,CCN(CC)c1ccc(CNc2nc3ccccc3n2CCN2CCCCC2)cc1,inactive: -1.5%
21,COc1ccccc1C(=O)Nc1ccc2c(c1)nc1n2CCN(Cc2ccccc2)C1,inactive: -3.8%
22,COc1cc(OC)cc(C(=O)OCCNC(=O)Cn2cnc3c2c(=O)n(C)c(=O)n3C)c1,inactive: -3.3%
23,Cc1ccc2c(c1)C1CN(C)CCC1N2C(=O)c1cccc(S(=O)(=O)N2CC(C)CC(C)C2)c1 (stereo unspecified),inactive: -2.7%

row,Structure (SMILES),activation
1,COc1ccc(N(C(=O)Cn2cnc3ccccc32)C(C(=O)NC2CCCCC2)c2ccccc2)cc1 (stereo unspecified),inactive: -0.5%
2,Cc1ccc(NC(=O)C2CC(=O)Nc3nc4ccccc4n32)c(C)c1 (stereo unspecified),inactive: -1.1%
3,O=C(CCNC(=O)N1CCn2c1nc1ccccc12)NCc1ccccc1,inactive: -3.5%
4,Cn1c(=O)c2c(nc(N3CCCCC3)n2CCNC2=NCCC2)n(C)c1=O,inactive: -1.9%
5,O=C(Cn1c(CO)nc2ccccc21)NCc1ccc2c(c1)OCO2,inactive: -0.6%
6,Cc1cccc(N2CCN(C(=O)Cn3cnc4c3c(=O)n(C)c(=O)n4C)CC2)c1C,inactive: -2.2%
7,O=C(Cn1c(COc2ccc(Cl)cc2)nc2ccccc21)NCC(F)(F)F,inactive: -5%
8,CCN(CC)CCn1c(NC(=O)c2ccc(C)cc2)nc2ccccc21,inactive: 31.7%
9,CC(C)/C=N\N=C(\N)N[N+](=O)[O-],inactive: -2.1%
10,COc1ccc(CCNC(=O)CCCCCNC(=O)N2CCn3c2nc2ccccc23)cc1OC,inactive: 3.1%
11,O=C(Nc1nc2ccccc2n1CCN1CCOCC1)c1ccc(COc2ccccc2Br)o1,inactive: 1.7%
12,CN(C)CCCNC(=S)N1CCn2c(nc3ccccc32)C1,inactive: 0.6%
13,CCOC(=O)Cn1c(=O)c2c(nc3n2CCN3c2ccc(C)cc2)n(C)c1=O,inactive: -3%
14,Fc1ccc(Cn2nnnc2CN2CCC(n3nnc4cc(C(F)(F)F)ccc43)CC2)cc1,inactive: 0.3%
15,Brc1ccc(/C=N/c2nc3ccccc3n2CCN2CCOCC2)cc1,inactive: 1.2%
16,COCCN(C(=O)Cn1c(C(F)(F)F)nc2ccccc21)c1c(N)n(Cc2ccccc2)c(=O)[nH]c1=O,inactive: -3%
17,c1coc(CNc2nc3ccccc3n2CCN2CCOCC2)c1,inactive: 6.3%
18,O=[As](O)(c1ccccc1Br)c1ccccc1Br,inactive: -0.1%
19,O=C(CCCCCNC(=O)N1CCn2c1nc1ccccc12)N[C@H](Cc1ccccc1)C(=O)O,inactive: 3.6%
20,O=C(Nc1nc2ccccc2n1CCN1CCCCC1)c1ccc(Cl)cc1,inactive: 0.1%
21,CC1CN(C(=O)Cn2c(C(F)(F)F)nc3ccccc32)CC(C)O1 (stereo unspecified),inactive: -3.2%
22,CCCCNC(=O)CC1C(=O)N(Cc2ccccc2)C(C)c2nc3ccccc3n21 (stereo unspecified),inactive: 7.2%
23,Cn1c(=O)c2c(ncn2CC(=O)N2CCN(c3ccc(F)cc3)CC2)n(C)c1=O,inactive: 0.8%

row,Structure (SMILES),activation
1,O=C(Cn1c(SCc2ccccc2)nc2ccccc21)N1CCOCC1,inactive: 1.6%
2,Cc1cc(C)cc(NC(=O)Cn2c(SCc3cc(C)ccc3C)nc3ccncc32)c1,inactive: 3.8%
3,CCOP(=O)(NC(=NC(C)c1ccccc1)NC(C)c1ccccc1)OCC (stereo unspecified),inactive: 1.7%
4,CC(NC(=O)Cn1c(NCCO)nc2ccccc21)C1CC2CCC1C2 (stereo unspecified),inactive: -5.2%
5,O=C(Cn1c(NCCO)nc2ccccc21)NCCc1ccc(F)cc1,inactive: 3.3%
6,CCN(CC)CCn1c(NCc2cccc(OC)c2)nc2ccccc21,inactive: 2.9%
7,O=C(Cn1c(-c2cscn2)nc2ccccc21)Nc1ccc2ccccc2c1,inactive: 5%
8,CCC1=CC2Cc3nc4ccc(Cl)cc4c(N)c3C(C1)C2 (stereo unspecified),inactive: -4%
9,Cn1c(=O)c2c(ncn2CC(=O)N2CCCc3ccccc32)n(C)c1=O,inactive: 1.1%
10,O=P1(Nc2ccccn2)COc2ccccc2OC1,inactive: -3%
11,COc1cccc(CNC(=O)CCCCCNC(=O)N2CCn3c2nc2ccccc23)c1,inactive: -1.6%
12,Cn1c(=O)oc2cc(S(=O)(=O)N3CCCC(C(=O)N4CCn5c4nc4ccccc45)C3)ccc21 (stereo unspecified),inactive: -3.3%
13,CC(C)NC(=O)CSc1nc2ccccc2n1CC(=O)N1CCc2ccccc21,inactive: 4.7%
14,CC(c1ccccc1)N1CCn2c(nc3cc(NC(=O)NC4CCCCC4)ccc32)C1 (stereo unspecified),inactive: -6.8%
15,CC(C)C[C@H](NC(=O)N1CCn2c1nc1ccccc12)C(=O)N[C@@H](C(=O)O)c1ccccc1,inactive: -4%
16,CN(C)C1(c2nnnn2CCOC(=O)Nc2ccc(Cl)cc2)CCCCC1,inactive: 0.1%
17,CC1c2nc3ccccc3n2C(CC(=O)NC2CC2)C(=O)N1Cc1ccccc1 (stereo unspecified),inactive: -6.2%
18,CNC(=O)Cn1c(=O)n(C)c2ccccc21,inactive: -1.5%
19,CCN1C(=O)CC(N2CCC(Nc3ccc(F)cc3)CC2)C1=O (stereo unspecified),inactive: -1.5%
20,CCOP(=O)(Nc1ccc(C)cn1)OCC,inactive: 3.5%
21,CCOc1ccc(N2CCn3c2nc2c3c(=O)n(CCc3ccccc3)c(=O)n2C)cc1,inactive: 0.9%
22,Cc1ccc(-c2nc(N(C)C3CCN(C)CC3)c3ccccc3n2)cc1,inactive: -6.5%
23,Cc1ccc(SCc2nc3ccccc3n2CC(=O)Nc2ccc(Cl)cc2)cc1,inactive: 7%

row,Structure (SMILES),activation
1,CCCCNc1nc2ccccc2n1CC(=O)Nc1ccc2c(c1)OCCO2,inactive: -0.5%
2,CN1CCC2(CC1)Nc1nc(SCc3ccc(Cl)cc3)nn1C1=C2CN(C)CC1,inactive: -5.8%
3,Cc1ccc2c(c1)C1CN(C)CCC1N2C(=S)Nc1cccnc1 (stereo unspecified),inactive: 1.1%
4,FC(F)(F)c1cccc(-n2nnnc2C2(N3CCOCC3)CCCCC2)c1,inactive: 0.2%
5,N#CCC(=O)N/N=C\c1ccc(OC/C=C/c2ccccc2)cc1,inactive: -3.8%
6,CC(C)NC(=O)Cn1c(SCC(=O)N2CCc3ccccc3C2)nc2ccccc21,inactive: -5.4%
7,Cc1cc(N2C(=O)CC(N3CCC(n4c(=O)[nH]c5ccccc54)CC3)C2=O)no1 (stereo unspecified),inactive: 1.9%
8,Cc1ccc(CNC(=O)CCCCCNC(=O)N2CCn3c2nc2ccccc23)cc1,inactive: -6.6%
9,Brc1cccc(CNc2nc3ccccc3n2CCN2CCOCC2)c1,inactive: 1.6%
10,S=C(Nc1ccccc1)N1CCn2c(nc3ccccc32)C1,inactive: -4%
11,O=C(Cn1c(CSc2ccccc2)nc2ccccc21)Nc1ccccc1,inactive: 3.6%
12,O=C(NCCn1c(C(F)(F)F)nc2cc(C(F)(F)F)ccc21)[C@H]1CCCN1c1nc(CN2CCCCC2)cs1,inactive: -0.4%
13,Cc1cc(C)cc(NC(=O)Cn2c(-c3ccccc3Cl)nc3ccccc32)c1,inactive: -3.1%
14,Cn1c(=O)c2ncn(CC(=O)Nc3cc(C(F)(F)F)ccc3N3CCOCC3)c2n(C)c1=O,inactive: 3.8%
15,CCCC(=O)Nc1nnc(/C=C/c2ccccc2)s1,inactive: -1.1%
16,CC(C)(C)C(=O)NC(Sc1ncccn1)C(Cl)(Cl)Cl (stereo unspecified),inactive: -2.4%
17,Cn1c(=O)c2c(ncn2CC(=O)Nc2nnc(Cc3ccccc3)s2)n(C)c1=O,inactive: 3.8%
18,COc1ccc(OCC(O)Cn2c(=N)n(CCN3CCOCC3)c3ccccc32)cc1 (stereo unspecified),inactive: -3.8%
19,O=C(Cn1c(C(F)(F)F)nc2ccccc21)Nc1ccccc1C(=O)O,inactive: -1.6%
20,CN(C)CCn1c(NC(=O)c2ccc(Cl)cc2)nc2ccccc21,inactive: 4.7%
21,Clc1n[nH]nc1-c1nn[nH][15n]1,inactive: -2.4%
22,COc1ccc(/C=N/NC(=O)Cn2c(Cc3ccc(OC)c(OC)c3)nc3ccccc32)cc1OC,inactive: 3.9%
